The values below come from PubChem BioAssay AID588334 (Broad Institute, 2011).

This is a selection; strong and weak results do not stand in their true shares. Some tests of the compounds listed are not included; inactive here does not mean inactive elsewhere. The source made the active and inactive calls.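 The calls were made as follows: active = mean activation of at least 80% with every replicate also reaching 80%; inconclusive = mean reaches 80% but some replicate falls short; inactive = the rest.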

The nature of the test: activators of MITF-driven TRPM1 promoter reporter, primary screen, cell-based, SK-MEL-5, luciferase, single point (AID 588334).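 Also: 0% = neutral control wells and 100% = parthenolide positive control wells.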 The conditions noted are these: SK-MEL-5 TRPM1-promoter luciferase, 24 h; at 12.5 µM; active compounds read high; % of positive control, neutral wells = 0.
Take `O=C(NCC1(N2CCCCC2)CCCCC1)c1cc(F)c(F)cc1Cl`: the activation was inactive: 12.2%. On to `C=CCN1CCN(CCOC(=O)C(O)(c2ccccc2)c2ccccc2)CC1`, for which the activation is inactive: -6.94%.

Turning to `O=C(NCC1(N2CCCCC2)CCCCC1)c1cccc(Br)c1`, the activation is inactive: 14.1%. Consider `CCN1CCCC(OC(=O)C2(O)c3ccccc3C=Cc3ccccc32)C1` (stereo not given), for which the activation is inactive: -0.008%. Next, `Cc1cc(C(=O)NCC2(N3CCCCC3)CCCCC2)ccc1[N+](=O)[O-]`: inactive: 0.864%; `COc1ccc(C(=O)NCC2(N(C)C)CCCCC2)cc1`: inactive: 1.24%; `CN(C)c1ccc(C(=O)NCC2(N(C)C)CCCCC2)cc1`: inactive: -4.31%. Turning to `CN(C)C1CCCC1OC(=O)C(O)(c1ccccc1)c1ccccc1` (stereo not given), the activation was inactive: -4.44%.

On to `Cc1ccccc1C(=O)NCC1(N2CCCCC2)CCCCC1`, for which the activation is inactive: -4.02%. Consider `CC(C)N1C(=O)CC2(CCN(CCOC(=O)C(O)(c3ccccc3)c3ccccc3)CC2)C1=O`, for which the activation was inactive: 6.8%. `COc1cc(SC)ccc1C(=O)NCC1(N(C)C)CCCCC1`: the activation is inactive: 2.77%. Turning to `CCN(CC)CC(C)C(C)OC(=O)C(O)(c1ccccc1)c1ccccc1` (stereo not given), the activation was inactive: -8.04%. `Cc1ccc(C(=O)NCC2(N3CCCCC3)CCCCC2)cc1`: the activation is inactive: 16.4%.

For `O=C(NCC1(N2CCCCC2)CCCCC1)c1cc([N+](=O)[O-])ccc1Cl`, the activation is inactive: -5.53%.

In the case of `CN1[C@@H]2CC[C@H]1CC(OC(=O)C(O)(c1ccccc1)c1ccccc1)C2` (stereo not given in full), the activation was inactive: 3.34%. `COc1ccc(Br)c(C(=O)NCC2(N3CCCCC3)CCCCC2)c1`: the activation is inactive: 6.94%. On to `CN(C)c1cccc(C(=O)NCC2(N(C)C)CCCCC2)c1`, for which the activation was inactive: -17.1%. Regarding `O=C(OCCN1CCCC1)C(O)(c1ccccc1)c1ccccc1`, the activation is inactive: -2.11%. Next, `CC(C)Oc1ccc(C(=O)NCC2(N(C)C)CCCCC2)cc1`: inactive: 9.33%; `O=C(OC1CN2CCC1CC2)C(CO)(c1ccccc1)c1ccccc1` (stereo not given): inactive: 0.909%.

For `COc1ccc(Cl)cc1C(=O)NCC1(N(C)C)CCCCC1`, the activation is inactive: -5.19%. Next, `COc1cccc(C(=O)NCC2(N3CCCCC3)CCCCC2)c1`: inactive: -7.11%. For the molecule `O=C(NCC1(N2CCCCC2)CCCCC1)c1cccc(Cl)c1`, the activation was inactive: 9.6%.

For the molecule `CN(C)C1(CNC(=O)c2ccc(Br)cc2)CCCCC1`, the activation was inactive: 0.719%.

In the case of `COc1cc(C(=O)NCC2(N(C)C)CCCCC2)c([N+](=O)[O-])cc1OC`, the activation was inactive: 25%.
